Test [1] has as its target T1, hFASN enzyme (full length) (Homo sapiens, UniProt P49327).
T1 construct: 10 μL hFASN enzyme (full length, 300 ng, purified in house); made in house
Nature of the test: Fatty Acid Synthase (FASN) inhibition scintillation proximity assay. The test is classed as biochemical. The note with it: for IC50: read-out: Human FASN pIC50 (converted). The method, then: In this assay, inhibition of FASN activity is measured using ^3H-acetyl-CoA and malonyl-CoA as substrates. ^3H-Acetyl CoA is converted to ^3H-palmitate through a series of reactions by the FASN protein, which contains 7 functional domains and carries out 7 enzymatic reactions to ultimately produce ^3H-palmitate. The assay principle is based upon the fact that ^3H-acetyl-CoA is hydrophilic and the end product, ^3H-palmitate is hydrophobic.
10 μL assay buffer (100 mM KH2PO4 pH 7.5, 1 mM DTT) (20 μL in blanks) was added to a 384-well white optiplate plate (Perkin Elmer). 0.9 μL test compound (at concentrations of 30 μM, 10 μM, 3 μM, 1 μM, 0.30 μM, 0.10 μM, 0.03 μM and 0.01 μM)/DMSO and 10 μL hFASN enzyme (full length, 300 ng, purified in house) or 10 μL assay buffer was added to the wells. […] The reaction was stopped by adding 20 μL Streptavidin coupled imaging beads (25 mg/ml). After incubation for 30 minutes at room temperature in the dark, the 384 well plate was centrifuged at 1500 rpm for 3 minutes and was measured after at least 24 hrs by the LEADseeker™, measuring emission using a 610±20 nm pass filter.
where mLC and mHC were the means of the low control wells and high control wells on the plate, after manual exclusion of outliers. A plot of Controlmin versus test compound concentration was fitted to a 4-parameter logistic curve using a non-linear least squares regression method.

Amino acid sequences for entries named in this document (tags omitted).
UniProt P49327, whole entry: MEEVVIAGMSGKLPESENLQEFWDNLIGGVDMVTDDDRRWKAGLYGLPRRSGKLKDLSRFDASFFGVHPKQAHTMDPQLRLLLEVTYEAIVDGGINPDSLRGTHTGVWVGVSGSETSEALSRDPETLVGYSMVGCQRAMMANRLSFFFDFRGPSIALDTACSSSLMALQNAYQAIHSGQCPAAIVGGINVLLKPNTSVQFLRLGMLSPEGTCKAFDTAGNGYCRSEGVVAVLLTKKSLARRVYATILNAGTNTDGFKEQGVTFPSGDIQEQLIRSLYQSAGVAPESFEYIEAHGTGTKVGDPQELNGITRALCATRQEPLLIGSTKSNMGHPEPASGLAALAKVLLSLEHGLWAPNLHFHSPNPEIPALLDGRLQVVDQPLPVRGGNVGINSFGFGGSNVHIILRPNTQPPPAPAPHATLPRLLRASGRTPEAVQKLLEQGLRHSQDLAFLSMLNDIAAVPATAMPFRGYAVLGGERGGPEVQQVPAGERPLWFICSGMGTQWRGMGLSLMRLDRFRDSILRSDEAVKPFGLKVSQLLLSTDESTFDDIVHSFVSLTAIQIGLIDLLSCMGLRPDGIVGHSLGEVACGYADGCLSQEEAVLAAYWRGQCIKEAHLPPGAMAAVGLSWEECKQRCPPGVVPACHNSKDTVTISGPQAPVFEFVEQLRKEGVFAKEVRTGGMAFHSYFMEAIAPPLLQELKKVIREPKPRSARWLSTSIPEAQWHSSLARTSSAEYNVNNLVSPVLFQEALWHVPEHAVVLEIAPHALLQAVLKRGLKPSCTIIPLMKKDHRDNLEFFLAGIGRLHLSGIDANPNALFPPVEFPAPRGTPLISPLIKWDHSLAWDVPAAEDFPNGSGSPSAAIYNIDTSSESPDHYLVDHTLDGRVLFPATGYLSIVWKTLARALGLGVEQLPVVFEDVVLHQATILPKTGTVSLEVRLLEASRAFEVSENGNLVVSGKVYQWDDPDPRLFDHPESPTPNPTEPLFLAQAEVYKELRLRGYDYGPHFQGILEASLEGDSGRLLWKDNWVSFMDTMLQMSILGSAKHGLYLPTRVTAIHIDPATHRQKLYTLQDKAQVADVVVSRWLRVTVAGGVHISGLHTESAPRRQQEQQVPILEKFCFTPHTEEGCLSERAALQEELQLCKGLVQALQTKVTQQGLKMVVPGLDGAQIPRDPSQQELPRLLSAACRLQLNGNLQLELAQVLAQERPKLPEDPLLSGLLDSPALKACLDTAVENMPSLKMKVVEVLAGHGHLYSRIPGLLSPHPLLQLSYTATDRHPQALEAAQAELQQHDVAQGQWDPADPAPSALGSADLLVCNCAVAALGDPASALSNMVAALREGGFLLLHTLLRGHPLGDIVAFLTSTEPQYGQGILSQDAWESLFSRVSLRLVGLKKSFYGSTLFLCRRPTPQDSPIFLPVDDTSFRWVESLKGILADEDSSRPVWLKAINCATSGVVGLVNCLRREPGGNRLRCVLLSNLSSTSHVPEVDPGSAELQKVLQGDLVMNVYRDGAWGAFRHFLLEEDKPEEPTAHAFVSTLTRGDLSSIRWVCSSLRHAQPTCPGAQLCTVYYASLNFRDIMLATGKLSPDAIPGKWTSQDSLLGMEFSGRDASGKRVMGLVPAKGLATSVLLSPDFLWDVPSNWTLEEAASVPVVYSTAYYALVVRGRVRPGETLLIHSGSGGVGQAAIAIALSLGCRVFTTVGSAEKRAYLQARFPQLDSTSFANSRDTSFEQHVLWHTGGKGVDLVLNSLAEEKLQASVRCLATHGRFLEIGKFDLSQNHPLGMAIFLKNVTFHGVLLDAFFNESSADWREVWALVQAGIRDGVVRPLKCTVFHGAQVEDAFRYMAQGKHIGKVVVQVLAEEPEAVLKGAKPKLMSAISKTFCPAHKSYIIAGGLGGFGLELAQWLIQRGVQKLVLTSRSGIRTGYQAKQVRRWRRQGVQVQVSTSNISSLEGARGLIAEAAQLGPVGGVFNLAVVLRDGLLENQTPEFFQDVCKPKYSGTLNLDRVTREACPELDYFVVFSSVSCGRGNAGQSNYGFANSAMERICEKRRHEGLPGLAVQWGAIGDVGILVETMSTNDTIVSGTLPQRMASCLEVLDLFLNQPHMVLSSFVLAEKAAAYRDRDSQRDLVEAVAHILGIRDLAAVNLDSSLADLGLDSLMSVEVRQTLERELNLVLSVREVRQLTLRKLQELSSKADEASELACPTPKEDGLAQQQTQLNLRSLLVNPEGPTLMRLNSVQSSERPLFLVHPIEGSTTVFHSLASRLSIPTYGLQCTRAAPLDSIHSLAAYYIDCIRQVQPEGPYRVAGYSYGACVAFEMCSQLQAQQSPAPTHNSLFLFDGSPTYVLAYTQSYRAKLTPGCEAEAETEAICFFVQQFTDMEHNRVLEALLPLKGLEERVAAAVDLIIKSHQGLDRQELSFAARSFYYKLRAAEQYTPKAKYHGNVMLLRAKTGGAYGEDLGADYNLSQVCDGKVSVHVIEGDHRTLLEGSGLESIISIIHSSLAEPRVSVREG

Test [2] addresses Fatty Acid Synthase Keto-reductase Domain (FASN KR) (Homo sapiens, UniProt P49327). Kind of test: Fatty Acid Synthase keto-reductase domain (FASN KR) inhibition, NADPH oxidation at 340 nm.
Setting [3] is: read-out: Human FASN % inhibition @ 10 μM, 10 μM test compound.

pIC50: −log10 of the molar value. Where two headings read alike, the source gives them in different places.

In turn, `Cn1ncc2cc(-c3ccc(C4=NC5(CC5)C(=O)N4C[C@@H]4CCCN(C(=O)C5CC5)C4)cc3)ccc21` [compound 396, 6-{[(3R)-1-(Cyclopropylcarbonyl)piperidin-3-yl]methyl}-5-[4-(1-methyl-1H-indazol-5-yl)phenyl]-4,6-diazaspiro[2.4]hept-4-en-7-one] showed a pIC50 in test [1] of about 5.07. The inhibition at 10 µM in test [1] (setting [3]) is 52%.

For the molecule `CC(=O)N1CCC2(CC1)N=C(c1ccc(-c3ccc4c(cnn4C)c3)cc1)N(C[C@@H]1CCN(C(=O)C3CC3)C1)C2=O` [compound 138, 8-Acetyl-3-{[(3R)-1-(cyclopropylcarbonyl)pyrrolidin-3-yl]methyl}-2-[4-(1-methyl-1H-indazol-5-yl)phenyl]-1,3,8-triazaspiro[4.5]dec-1-en-4-one], the inhibition at 10 µM in test [1] (setting [3]) was 102%. Moreover, the IC50 in test [1] was 389 nM.

Turning to `O=C(C1CC1)N1CC(CN2C(=O)C3(CCCC3)N=C2c2ccc(-c3ccc4[nH]ccc4c3)cc2)C1` [compound 78, 3-{[1-(Cyclopropylcarbonyl)azetidin-3-yl]methyl}-2-[4-(1H-indol-5-yl)phenyl]-1,3-diazaspiro[4.4]non-1-en-4-one], the IC50 in test [1] is 58.9 nM. Besides, in test [2], the pIC50 was 6.65.

With `O=C(C1CC1)N1CC[C@@H](CN2C(=O)C3(CC3)N=C2c2ccc(-c3ccc4ncccc4c3)cc2)C1` [compound 455, 6-{[(3R)-1-(Cyclopropylcarbonyl)pyrrolidin-3-yl]methyl}-5-(4-quinolin-6-ylphenyl)-4,6-diazaspiro[2.4]hept-4-en-7-one], the figures for the pIC50 in test [1] and in test [2] were 6.79 and 6.45, respectively. Moreover, in test [1] (setting [3]), the inhibition at 10 µM came out at 99%.

With `Cc1cc(C2=NC3(CC3)C(=O)N2C[C@@H]2CCN(C(=O)C3CC3)C2)ccc1-c1ccc2cc[nH]c2c1` [compound 239, (R)-5-(4-(1H-indol-6-yl)-3-methylphenyl)-6-((1-(cyclopropanecarbonyl)pyrrolidin-3-yl)methyl)-4,6-diazaspiro[2.4]hept-4-en-7-one], the IC50 in test [1] was 58.9 nM. In test [2], this molecule gave a pIC50 of 6.89.

In the case of `O=C(C1CC1)N1CC[C@@H](CN2C(=O)C3(CC3)N=C2c2ccc(-c3ccc4occc4c3)cc2)C1` [compound 58, (R)-5-(4-(Benzofuran-5-yl)phenyl)-6-((1-(cyclopropanecarbonyl)pyrrolidin-3-yl)methyl)-4,6-diazaspiro[2.4]hept-4-en-7-one], the inhibition at 10 µM in test [1] (read-out: Human FASN % inhibition @ 10 μM) was found to be 108%. Further, the IC50 in test [1] was 25.1 nM. Also, the pIC50 in test [2] was 7.28.

Take `N#Cc1ccc(-c2ccc(C3=NC4(CC4)C(=O)N3CC3CCN(C(=O)C4CC4)CC3)cc2)cc1` [compound 7, 4′-(6-{[1-(Cyclopropylcarbonyl)piperidin-4-yl]methyl}-7-oxo-4,6-diazaspiro[2.4]hept-4-en-5-yl)biphenyl-4-carbonitrile]: the IC50 in test [1] was over 10000 nM.

As to `Cn1ncc2cc(-c3ccc(C4=NC5(CC5)C(=O)N4C[C@@H]4CCN(C(=O)C5CC5)C4)c(F)c3)ccc21` [compound 871, (R)-6-((1-(cyclopropanecarbonyl)pyrrolidin-3-yl)methyl)-5-(2-fluoro-4-(1-methyl-1H-indazol-5-yl)phenyl)-4,6-diazaspiro[2.4]hept-4-en-7-one], the pIC50 in test [1] is 7.65.

Turning to `Cc1cc(-c2ccc3cc[nH]c3c2)ccc1C1=NC2(CCCC2)C(=O)N1C[C@@H]1CCN(C(=O)C2CC2)C1` [compound 873, (R)-2-(4-(1H-indol-6-yl)-2-methylphenyl)-3-((1-(cyclopropanecarbonyl)pyrrolidin-3-yl)methyl)-1,3-diazaspiro[4.4]non-1-en-4-one], the IC50 in test [1] was 24.5 nM. In addition, in test [2], the pIC50 is 7.39.

Regarding `Cn1ncc2cc(-c3ccc(C4=NC5(CC5)C(=O)N4C[C@@H]4CCN(C(=O)C5CC5)C4)cc3F)ccc21` [compound 405, 6-{[(3R)-1-(Cyclopropylcarbonyl)pyrrolidin-3-yl]methyl}-5-[3-fluoro-4-(1-methyl-1H-indazol-5-yl)phenyl]-4,6-diazaspiro[2.4]hept-4-en-7-one], the inhibition at 10 µM in test [1] (setting [3]) is 102%.

`O=C(C1CC1)N1CC[C@H](CN2C(=O)C3(CC3)N=C2c2ccc(-c3ccc4[nH]ncc4c3)cc2)C1` [compound 431, 6-{[(3S)-1-(Cyclopropylcarbonyl)pyrrolidin-3-yl]methyl}-5-[4-(1H-indazol-5-yl)phenyl]-4,6-diazaspiro[2.4]hept-4-en-7-one]: the inhibition at 10 µM in test [1] (setting [3]) worked out at 97%. The IC50 in test [1] was 316 nM. In test [2], this molecule showed a negative-log IC50 (pIC50) of 6.33.

As to `O=C(C1CC1)N1CC[C@@H](CN2C(=O)C3(CC3)N=C2c2ccc(-c3ccc4[nH]ncc4c3)cc2)C1` [compound 297, (R)-5-(4-(1H-indazol-5-yl)phenyl)-6-((1-(cyclopropanecarbonyl)pyrrolidin-3-yl)methyl)-4,6-diazaspiro[2.4]hept-4-en-7-one], the pIC50 was 7.50 in test [1] and 7.21 in test [2]. For the same molecule, the inhibition at 10 µM in test [1] (setting [3]) came out at 111%.

`O=C(C1CC1)N1CC[C@@H](CN2C(=O)C3(CC3)N=C2c2ccc(-c3cnc4ccccc4c3)cc2)C1` [compound 474, 6-{[(3R)-1-(Cyclopropylcarbonyl)pyrrolidin-3-yl]methyl}-5-(4-quinolin-3-ylphenyl)-4,6-diazaspiro[2.4]hept-4-en-7-one]: the pIC50 in test [1] was 6.91; in test [2], 6.74. The inhibition at 10 µM in test [1] (setting [3]) came out at 99%.

For the molecule `Cn1ncc2cc(-c3ccc(C4=NC5(CC5)C(=O)N4CC4CN(C(=O)C5CC5)C4)cc3)ccc21` [compound 39, 6-{[1-(Cyclopropylcarbonyl)azetidin-3-yl]methyl}-5-[4-(1-methyl-1H-indazol-5-yl)phenyl]-4,6-diazaspiro[2.4]hept-4-en-7-one], the inhibition at 10 µM in test [1] (setting [3]) is 103%. In test [1], the IC50 is 64.6 nM. Also, the pIC50 in test [2] was 6.67.

As to `Cc1cc(-c2ccc3c(cnn3C)c2)ccc1C1=NC2(CC2)C(=O)N1C[C@@H]1CCN(C(=O)C2CC2)C1` [compound 262, (R)-6-((1-(cyclopropanecarbonyl)pyrrolidin-3-yl)methyl)-5-(2-methyl-4-(1-methyl-1H-indazol-5-yl)phenyl)-4,6-diazaspiro[2.4]hept-4-en-7-one], the pIC50 is about 7.29 in test [1] and 7.14 in test [2]. The inhibition at 10 µM in test [1] (setting [3]) is 94%.

For the molecule `Cn1ncc2cc(-c3ccc(C4=NC5(CC5)C(=O)N4C[C@H]4CCCN(C(=O)C5CC5)C4)cc3)ccc21` [compound 819, (S)-6-((1-(cyclopropanecarbonyl)piperidin-3-yl)methyl)-5-(4-(1-methyl-1H-indazol-5-yl)phenyl)-4,6-diazaspiro[2.4]hept-4-en-7-one], the IC50 in test [1] was over 10000 nM.

As for `O=C(C1CC1)N1CC(CN2C(=O)C3(CC3)N=C2c2ccc(-c3ccc4ccccc4n3)cc2)C1` [compound 345, 6-((1-(cyclopropanecarbonyl)azetidin-3-yl)methyl)-5-(4-(quinolin-2-yl)phenyl)-4,6-diazaspiro[2.4]hept-4-en-7-one], the IC50 in test [1] was 89.1 nM. In addition, in test [2], the pIC50 is 6.64.

Take `O=C(C1CC1)N1CC[C@@H](CN2C(=O)C3(CC3)N=C2c2ccc(-c3ccc4cnccc4c3)cc2)C1` [compound 47, 6-{[(3R)-1-(Cyclopropylcarbonyl)pyrrolidin-3-yl]methyl}-5-(4-isoquinolin-6-ylphenyl)-4,6-diazaspiro[2.4]hept-4-en-7-one]: the pIC50 in test [1] was 7.69; in test [2] it was 7.56. In addition, the inhibition at 10 µM in test [1] (setting [3]) stood at 103%.

As to `Cc1cc(C2=NC3(CC3)C(=O)N2C[C@@H]2CCN(C(=O)C3CC3)C2)ccc1-c1ccc2c(cnn2C)c1` [compound 450, 6-{[(3R)-1-(Cyclopropylcarbonyl)pyrrolidin-3-yl]methyl}-5-[3-methyl-4-(1-methyl-1H-indazol-5-yl)phenyl]-4,6-diazaspiro[2.4]hept-4-en-7-one], the results for the pIC50 in test [1] and in test [2] were 6.53 and 6.19, respectively. Besides, the inhibition at 10 µM in test [1] (setting [3]) was 98%.

Take `O=C(C1CC1)N1CC[C@H](CN2C(=O)C3(CC3)N=C2c2ccc(-c3ccc4occc4c3)cc2)C1` [compound 409, 5-[4-(1-Benzofuran-5-yl)phenyl]-6-{[(3S)-1-(cyclopropylcarbonyl)pyrrolidin-3-yl]methyl}-4,6-diazaspiro[2.4]hept-4-en-7-one]: the inhibition at 10 µM in test [1] (setting [3]) came out at 100%. For the same molecule, the IC50 in test [1] is 174 nM. In test [2], this molecule gave a pIC50 of 6.46.

Values taken from patent publication US10077261B2, “Imidazolin-5-one derivative useful as FASN inhibitors for the treatment of cancer” (Janssen Pharmaceutica NV, priority 2012, dated 2018).
